Values of other authors as cited in publication PMC7456046.

Tests used:
[1] = target: calcineurin beta CaM binding region (Homo sapiens) (UniProt P16298)
[2] = target: calcineurin alpha (Homo sapiens) (UniProt Q08209)
[3] = target: calcineurin alpha (Homo sapiens) (UniProt Q08209); test: stopped-flow fluorescence

## calmodulin (from UniProt P0DP23)
[1]
  Kd: 0.001 nM
[2]
  Kd: 16 nM
[3]
  Kd: 0.026 nM

Like-named read-outs stand apart in the source and are kept apart here.
